Laboratory results published in publication PMC10655782 (Alzheimer's & Dementia : Translational Research & Clinical …, 2023).

Amino acid sequences for entries named in this document (tags omitted). Residues count along the entry.
UniProt O15357, 420-878: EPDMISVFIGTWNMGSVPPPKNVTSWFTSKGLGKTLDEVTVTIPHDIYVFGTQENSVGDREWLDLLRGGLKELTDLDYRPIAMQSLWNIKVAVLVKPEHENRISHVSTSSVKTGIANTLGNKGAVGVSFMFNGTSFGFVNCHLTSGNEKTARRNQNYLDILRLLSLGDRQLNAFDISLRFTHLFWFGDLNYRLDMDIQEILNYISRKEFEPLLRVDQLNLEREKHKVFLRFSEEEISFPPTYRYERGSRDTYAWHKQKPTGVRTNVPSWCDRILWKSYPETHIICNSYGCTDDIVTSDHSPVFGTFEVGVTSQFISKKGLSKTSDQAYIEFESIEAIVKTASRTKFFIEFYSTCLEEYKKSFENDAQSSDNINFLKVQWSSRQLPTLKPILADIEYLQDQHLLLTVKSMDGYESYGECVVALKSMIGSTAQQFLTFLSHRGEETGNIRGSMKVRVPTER

Columns and labels:
human SHIP1 Ptase‐C2 = target: T1, human SHIP1 Ptase‐C2 (Homo sapiens, UniProt Q92835); assay: Malachite green enzyme assay, hSHIP1^395‐898 Ptase‐C2, substrate PtdIns; type: biochemical; settings: SHIP1 versus SHIP2 Ptase‐C2
T1 sequence (Q92835 395-898): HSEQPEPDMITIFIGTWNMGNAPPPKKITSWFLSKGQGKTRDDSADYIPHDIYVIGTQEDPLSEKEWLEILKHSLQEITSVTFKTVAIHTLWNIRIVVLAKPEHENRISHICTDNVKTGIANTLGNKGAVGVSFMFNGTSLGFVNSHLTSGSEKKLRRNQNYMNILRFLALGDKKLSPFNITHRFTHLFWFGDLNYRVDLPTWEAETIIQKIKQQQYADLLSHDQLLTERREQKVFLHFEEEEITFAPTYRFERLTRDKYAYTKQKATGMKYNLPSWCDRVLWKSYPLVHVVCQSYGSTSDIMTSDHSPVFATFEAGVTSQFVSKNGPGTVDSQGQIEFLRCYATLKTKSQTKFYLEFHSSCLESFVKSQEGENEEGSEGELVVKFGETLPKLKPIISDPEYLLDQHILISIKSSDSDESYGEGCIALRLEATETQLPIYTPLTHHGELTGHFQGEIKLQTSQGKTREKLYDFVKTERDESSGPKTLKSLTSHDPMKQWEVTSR

pAKT/tAKT in THP1 cells = assay: AKT signaling assay in THP1 cells; type: cell-based, human; settings: 90 min treatment, geometric mean
human SHIP2 Ptase‐C2 = human SHIP2 Ptase‐C2 (Homo sapiens, UniProt O15357); assay: biochemical

Row | SMILES | Selectivity (human SHIP1 Ptase‐C2) | Signaling IC50 (reduction in the ratio pAKT/tAKT) (pAKT/tAKT in THP1 cells) | IC50 (human SHIP2 Ptase‐C2)
1 | CC(=O)C1=C(C)Nc2sc(C(=O)c3ccc(Cl)c(Cl)c3)c(N)c2C1c1cccnc1 (centres unmarked) [Compound 2] | >16 | 12.4 μM | > 300 µM
2 | Clc1ccc(COc2cncc(-c3cnn(C4CCNCC4)c3)c2)c(Cl)c1 [Compound 23, 3‐((2,4‐Dichlorobenzyl)oxy)‐5‐(1‐(piperidin‐4‐yl)‐1H‐pyrazol‐4‐yl)pyridine, reference compound] | 1 | 6.52 μM | 252 µM
3 | CC(C)c1ccc(C2C(C#N)=C3N=C(N)c4ccccc4N3C3=C2C(=O)CCC3)cc1 (centres unmarked) [Compound 3] | >33 | 5.60 μM | > 900 µM
4 | CC(C)CCC[C@@H](C)[C@H]1CC[C@H]2[C@@H]3CCC4C[C@H](N)CC[C@]4(C)[C@H]3CC[C@]12C (stereo partly drawn) [Compound 13, 3α‐aminocholestane, reference compound] | >4 |  | > 900 µM
